Test results reported in patent publication US12428389B2, “Diarylamide compound and application thereof” (Sunshine Lake Pharma Co., Ltd., priority 2019, dated 2025).
pIC50: −log10 of the molar value. Where two headings read alike, the source gives them in different places.

Key:
[1] = target: T1, UT-B (Rattus norvegicus, UniProt P97689); assay: erythrocyte lysis model, rat erythrocytes; type: cell-based, rats
T1 construct: The erythrocytes were diluted with hypertonic PBS containing 1.25 M urea; endogenous in cells; host or cells: erythrocytes of SD rats
T1 sequence (P97689 1-384): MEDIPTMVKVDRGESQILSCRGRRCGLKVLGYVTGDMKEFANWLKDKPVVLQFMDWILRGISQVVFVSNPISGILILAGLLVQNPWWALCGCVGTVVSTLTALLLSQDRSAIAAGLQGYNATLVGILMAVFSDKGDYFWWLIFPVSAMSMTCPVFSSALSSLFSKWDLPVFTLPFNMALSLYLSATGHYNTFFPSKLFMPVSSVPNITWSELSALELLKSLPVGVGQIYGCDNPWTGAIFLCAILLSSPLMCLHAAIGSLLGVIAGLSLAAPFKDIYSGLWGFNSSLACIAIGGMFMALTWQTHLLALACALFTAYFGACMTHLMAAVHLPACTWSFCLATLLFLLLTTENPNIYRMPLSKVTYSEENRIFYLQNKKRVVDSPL

[2] = target: T2, UT-B (Mus musculus, UniProt Q8VHL0); assay: erythrocyte lysis model, mouse erythrocytes; type: cell-based, mice
T2 construct: The erythrocytes were diluted with hypertonic PBS containing 1.25 M urea; endogenous in cells; host or cells: erythrocytes of C57 mice
T2 sequence (Q8VHL0 1-384): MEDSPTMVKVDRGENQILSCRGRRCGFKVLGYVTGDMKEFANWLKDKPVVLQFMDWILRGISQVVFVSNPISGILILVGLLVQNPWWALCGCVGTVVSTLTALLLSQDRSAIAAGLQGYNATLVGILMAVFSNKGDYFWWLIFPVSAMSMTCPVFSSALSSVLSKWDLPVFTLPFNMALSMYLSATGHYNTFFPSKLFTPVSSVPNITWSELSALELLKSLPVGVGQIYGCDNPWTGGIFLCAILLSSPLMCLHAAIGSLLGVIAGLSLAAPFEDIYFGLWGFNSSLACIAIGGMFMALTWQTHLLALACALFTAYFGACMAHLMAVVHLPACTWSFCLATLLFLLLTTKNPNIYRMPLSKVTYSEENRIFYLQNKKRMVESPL

[3] = target: T3, human UT-B (Homo sapiens, UniProt Q13336); assay: erythrocyte lysis model, human erythrocytes; type: cell-based
T3 construct: The erythrocytes were diluted with hypertonic PBS containing 1.25 M urea; endogenous in cells; host or cells: human erythrocytes
T3 sequence (Q13336 1-389): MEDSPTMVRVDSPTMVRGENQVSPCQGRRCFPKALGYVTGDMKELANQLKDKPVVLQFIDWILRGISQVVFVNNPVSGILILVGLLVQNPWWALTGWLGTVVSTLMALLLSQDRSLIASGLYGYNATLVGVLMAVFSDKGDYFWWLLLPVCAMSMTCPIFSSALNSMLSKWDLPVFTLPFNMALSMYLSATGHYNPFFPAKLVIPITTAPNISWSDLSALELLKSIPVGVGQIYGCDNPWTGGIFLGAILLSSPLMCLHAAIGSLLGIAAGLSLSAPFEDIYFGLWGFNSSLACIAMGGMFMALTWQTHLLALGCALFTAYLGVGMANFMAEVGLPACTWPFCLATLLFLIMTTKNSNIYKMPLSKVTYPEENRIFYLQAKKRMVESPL

[4] = Activity level, class of the IC50 to human UT-B
[5] = IC50 human, concentration when the erythrocyte lysis rate of human was 50%

pIC50 ([1]; concentration when the erythrocyte lysis rate of rats was 50%, read-out: IC50 rats)	pIC50 ([2]; concentration when the erythrocyte lysis rate of mice was 50%, read-out: IC50 mice)	pIC50 ([3]; class of the IC50 to human UT-B, read-out: Activity level)	pIC50 ([3]; concentration when the erythrocyte lysis rate of human was 50%, read-out: IC50 human)	Compound	pIC50 [1]	pIC50 [2]	pIC50 [3, 4]	pIC50 [3, 5]
6.96	6.07	> 5.00	7.27	CC(=O)Nc1ccc(NC(=O)c2ccc(C(C)=O)o2)cc1 [Example 70, N-(4-acetamidophenyl)-5-acetylfuran-2-carboxamide]	–	–	–	–
–	–	–	–	O=C(Nc1ccccc1)c1ccc([N+](=O)[O-])o1 [Example 5, N-phenyl-5-nitrofuran-2-carboxamide]	5.99	5.37	> 5.00	6.08
–	–	–	–	O=C(Nc1ccc(Cl)cc1)c1ccc([N+](=O)[O-])o1 [Example 39, N-(4-chlorophenyl)-5-nitrofuran-2-carboxamide]	4.96	4.56	4.10 to 4.70	4.58
